One data set relates to Mice. Description: toxicology in mice, injection at the same high concentrations. Type of data set: in vivo, mouse. The note with it: injected at the same abnormally high concentrations.
A further data set concerns male CD-2. Put plainly: toxicology in male CD-2 mice, intraperitoneal injection. Type of data set: in vivo, mouse. The following applies: i.p. 0.25 ml of 20-^3 M. On the procedure: Additionally studies were performed in male CD-2 injected introperitoneally with 0.25 ml of 20-^3 M of [Nle^4, D--Phe^7 ]MSH. Core temperatures were monitored by rectal probes connected to a digital thermal transducer. There were not consistent changes in the core temperatures which averaged 35.2° C. for up to 24 hours post-injection. The activity level was also normal in these animals. Twenty four hours after dosing, the mice were sacrificed by rapid cervical dislocation and blood removed for analysis of hepatic and renal chemistries, and for characterization of hematologic indices. […] Serum levels of electrolytes were normal. The serum cortisol levels were also normal. […] The red blood cell characteristics (size, hemoglobin level) were normal.

Data set [1] has as its system TA-98 strain of S. typhimurium. Put plainly: Ames microbacterial assay. The note with it: 10^-2 M, spontaneous revertants subtracted. How it is done: The Ames microbacterial assay was used for these tests which were performed both with and without a microsomal enzyme/NADPH generating system. Briefly, this test measures the number of reverse mutations which occur in special histidine-dependent strains of Salmonella typhimurium. Positives (mutations) are scored as the number of revertant cells which are able to form colonies in a histidine-deficient growth medium after exposure to a mutagenic substance.
All substances were dissolved in sterile 0.9% sodium chloride (without preservatives) to concentrations of 10^-2, 10^-3 and 10^-4 Molar. The TA-98 strain of S. typhimurium was used and experiments were performed with and without exposure to S-9 rat liver microsomal enzymes and an NADPH generating system. This enzyme cocktail can metabolically activate some compounds to mutagenic species. In addition to the melanotropins, Doxorubicin (Adriamycin™) was also simultaneously tested. […] It was thus included to act as a positive control. […] For the actual evaluation of revertants, the identity of the specific test compound was blinded.

The subject of a further data set is rats. Description: toxicology in rats, daily injection for 5 days. The following applies: 0.02 mg daily for 5 consecutive days. Type of data set: in vivo, rat. How it is done: Six rats were injected with [Nle^4, D--Phe^7 ]-alpha-MSH (0.2 ml of 10^-4 M solution of the peptide; 0.02 mg daily for 5 consecutive days). […] On the last day of the treatment the animals were sacrificed and serum samples obtained. […] If the melanotropins were to stimulate the adrenal then it might be expected that blood glucose levels would be altered (as in Cushing's disease in humans).

Data set [2] can be described thus: in vitro penetration of mouse skin. Type of data set: in vitro ADME. The following applies: analog in PEG, penetration cell, 38° C., 24 hours, frog skin bioassay. On the procedure:
(§1) Subcutaneous tissue is removed from these skin samples and they are set up on a specially designed penetration cell [LGA]at 38° C. for 24 hours. AlphaMSH analog in PEG is applied to the epidermal surface. Saline bathes the dermal surface of the sample. The amount of alpha-MSH analog traversing the skin into the saline is quantitated by frog skin bioassay.

A short description of data set [3]: in vitro penetration of human cadaver and excised skin. Type of data set: in vitro ADME. The note with it: analog in PEG, penetration cell, 38° C., 24 hours, frog skin bioassay. How it is done: Human cadaver and excised skin from mastectomies, face lifts, etc. has been used to determine the in vitro penetration of alpha-MSH analog [Nle^4 4H,D--PheY7H]-alpha-MSH. Studies have shown that in vitro transdermal delivery in these types of skin accurately predicts the in vitro situation.
as §1

Data set [4] is described as follows: resistance to serum proteolytic enzyme degradation. Type of data set: in vitro ADME. How it is done:
In this procedure, samples of the media containing the peptides (10 nM) were removed at time zero and at 24, 48, and 72 hours. The samples were immediately frozen, and assays for biological activity using the in vitro frog skin bioassay.

Turning to “[Nle^4, D--Phe^7 ]--alpha-MSH [[Nle^4, D-Phe^7]-alpha-MSH]”, in the data set on Mice, the “general condition and behavior” value is recorded as “apparently not affected”. Besides, the activity level entry with male CD-2 is “normal”. In the data set with male CD-2 (24 hours after dosing), the “Serum levels of electrolytes” value is reported as “normal”; the “hematologic toxicities, whole blood” value is “no hematologic toxicities”; the “levels of white blood cells, red blood cells and platelets” value is listed as “normal levels”; the “liver or kidney function” value was “no alterations”. Moreover, in the data set on male CD-2 (24 hours after dosing), the “red blood cell characteristics (size, hemoglobin level)” value was “normal” and the serum cortisol levels result is recorded as “normal”. Besides, the weight change entry in the data set on male CD-2 (short-term study) is on record as “not significant weight change”. The “core temperatures, average” value with male CD-2 (up to 24 hours post-injection, no consistent changes) is 35.2 °C. Besides, in data set [1], the “REVERTANTS PER PLATE WITH S-9” value amounted to 0 and the “REVERTANTS PER PLATE WITHOUT S-9” value was determined as 0. In addition, the “blood glucose levels, control versus experimental animals” value with rats (serum on last day) is reported as “did not differ”. The “general condition after treatment” value with rats (0.2 ml of 10^-4 M) is “apparently no worse for the treatment”. Besides, the “penetration of mouse skin” value in data set [2] is listed as “well penetrated”. For the same substance, in data set [3], the “penetration of full thickness intact abdominal thoracic human skin (epidermis+ dermis)” value is recorded as “not penetrated entirely”; the “penetration of human scalp full thickness skin” value was “penetrated”; the “penetration of split skin samples of human epidermis (0.5 mm and 0.7 mm)” value is “penetrated”. The enzymatic inactivation result in data set [4] is reported as “resistant to enzymatic inactivation”.

(Values after US4866038A, “Method of stimulating integumental melanocytes by topical application of analogs of alpha-msh” (University Patents, Inc., priority 1988, dated 1989).)
